These results are taken from patent US6638952B1, “Aromatic sulfonyl alpha-cycloamino hydroxamic acid compounds” (Pharmacia Corporation, priority 1997, dated 2003).

Structures are written as SMILES. Counter-ions that a name gives are not always drawn.

The assay concerns the target T1, recombinant human MMP-1 (Homo sapiens, UniProt P03956).
T1 construct: made in house; host or cells: transfected HT-1080 cells (provided by Dr. Howard Welgus, Washington University)
T1 sequence (P03956 100-469): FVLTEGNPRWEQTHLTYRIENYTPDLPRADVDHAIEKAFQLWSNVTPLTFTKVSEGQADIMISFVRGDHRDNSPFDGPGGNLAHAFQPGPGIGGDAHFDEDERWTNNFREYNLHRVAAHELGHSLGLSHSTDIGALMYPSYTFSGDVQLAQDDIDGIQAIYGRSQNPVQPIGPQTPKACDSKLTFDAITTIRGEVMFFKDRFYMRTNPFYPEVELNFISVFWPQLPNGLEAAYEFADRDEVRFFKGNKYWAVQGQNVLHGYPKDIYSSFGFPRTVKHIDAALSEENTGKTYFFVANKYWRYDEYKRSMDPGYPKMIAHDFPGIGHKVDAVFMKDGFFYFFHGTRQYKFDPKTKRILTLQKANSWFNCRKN
In words: In vitro metalloprotease inhibition, fluorogenic peptide substrate. Type of assay: biochemical. To be noted: APMA-activated enzyme, room temperature, pH 7.5, substrate 4 μM.

In general, IC50 refers to the concentration at which inhibition is half-maximal. Take `C#CCN1CCCC1(CS(=O)(=O)c1ccc(Oc2ccccc2)cc1)C(=O)NO` (centres unmarked) [Example 8, N-Hydroxy-2-[[(4-phenoxyphenyl)sulfonyl]-methyl]-1-(2-propynyl)-2-pyrrolidine Carboxamide, Monohydrochloride]: the IC50 was found to be 0.4 µM. The figure for `C#CCN1CCC(CS(=O)(=O)c2ccc(Oc3ccc(C)c(C)c3)cc2)(C(=O)NO)CC1` [Example 7, N-Hydroxy-4-[[[4-(3,4-dimethylphenoxy)phenyl]sulfonyl]-methyl]-1-(2-propynyl)-4-piperidinecarboxamide, Monohydrochloride] is 7.7 µM.
